Binding of CDR-mutated scFvs to a peptide of the spike HR2 region

All variants were tested on one target, the spike HR2 peptide PDVDLGDISGINAS (SARS-CoV-2).

Parent scFv Ab-95: VH joined to VL by a 15-residue (Gly4Ser)3 linker. Changes lie in the light chain CDRs alone.
VH: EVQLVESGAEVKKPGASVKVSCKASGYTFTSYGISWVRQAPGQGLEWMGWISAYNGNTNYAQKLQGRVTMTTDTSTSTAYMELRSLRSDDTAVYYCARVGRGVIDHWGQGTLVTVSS
VL: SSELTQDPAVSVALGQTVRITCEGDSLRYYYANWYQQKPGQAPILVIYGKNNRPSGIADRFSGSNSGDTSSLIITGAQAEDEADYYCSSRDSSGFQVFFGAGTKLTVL

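Phage display of a naive human antibody library on the peptide gave the parent. The library (AAYL52) carries one to three amino acid substitutions per variant, with no insertions or deletions. The scFvs were displayed on barcoded MATa yeast, the peptide on MATalpha yeast. Mating (16 h, 30 °C) was followed by selection of diploids and sequencing of their barcodes. The ratio of observed to expected reads was calibrated, replicate by replicate, on BCL2-family standards whose Kd was known from biolayer interferometry. Mating was done three times.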

The parent's light chain CDRs are EGDSLRYYYAN, GKNNRPS, SSRDSSGFQVF; each variant's own CDRs replace them letter for letter.
The read-out is the apparent dissociation constant on a log10 scale (nM): the lower, the stronger.
Replicates are averaged; those with no signal do not enter the mean.
An entry "no signal" has no value in the source: the pair was not observed among the diploids in any replicate. This suggests poor binding but is not conclusive.
Three control strains display no target. For library AAYL52, 28% of the pairings with them gave a signal, with a median of 3.91 and one signal in twenty below 2.90, so weak values seen in few replicates may be background. The control count says in how many pairings with the empty strains this scFv gave a signal.
For reference, the parent read 2.31 as the reference entry and 2.25 as a member of this library.

CDR-L1,CDR-L2,CDR-L3,mean log10 Kd (nM),replicates with signal,control signals
EGDSLRYYYAN,GKNNRNS,ISRDDSGFQVF,2.30,3/3,0/9
EGRSLAYYYAN,GKNQRPS,SSRDSSGFQVF,2.01,3/3,4/9
EGDSLCYYYAN,GKNNRPS,WSRDSSWFQVF,3.76,2/3,4/9
EGDSHRYYYAN,GKNNMPS,SSRQSSGFQVF,4.94,1/3,4/9
EGDSLRYYYAN,GKHNRVS,SSRDSSGFQVF,3.80,3/3,3/9
EGDSLRDYAAN,GKNNRKS,SSRDSSGFQVF,2.11,3/3,1/9
EGDSMRYYPAN,NKNNRPS,SSRDSSGFQVF,1.80,3/3,3/9
TGDSRRYYYAN,GKNNRPS,SSCDSSGFQVF,no signal,0/3,1/9
EGDSLTYYYAN,GKNNRPS,SRRDSSGFQVF,no signal,0/3,0/9
EGDSLRYYYAN,GENNRPS,SSRDSPGNQVF,2.86,3/3,1/9
EGDSLRYYYAN,GNNNRPS,SSNDSSGFQVF,2.22,3/3,4/9
EGDSLRYYYAN,GKFNRPS,SSRISVGFQVF,3.17,2/3,3/9
EGSSLRYYYAN,GKNNRPS,SSRDSSGFVVK,2.86,3/3,3/9
EGDSLRYYYSN,IKNNRPS,SSRDSSGVQVF,no signal,0/3,0/9
EDDSLRYYGAN,GKNNRPS,SKRDSSGFQVF,3.12,3/3,2/9
EGDSLRYYYAF,GKNNRPS,SSRDESGFQGF,4.33,1/3,1/9
AGDSLRYYYAN,GKEERPS,SSRDSSGFQVF,1.95,3/3,4/9
MGDSLRYYYAN,GKNNRPS,SWRDSSGFQVF,no signal,0/3,2/9
EGDSLRYYIGN,GKNNRPS,SSRDSSGFQSF,4.71,2/3,0/9
EGHSLRYYYAK,GKNNRPS,SSRDSSGFQAF,2.86,3/3,0/9
EGDSLRYDYAN,GKNNRPS,SSRDSYGFPVF,2.57,3/3,6/9
EEDPLRYYYAN,GKNNRPS,SSRDSSGFQVF,no signal,0/3,2/9
EGDSLRPYYAN,GKNNRPS,SSRRSSGCQVF,3.03,3/3,1/9
EGDSLRYYYAN,GKNNRPS,SSRTRSGFQVF,2.63,3/3,3/9
EGESLRYYKAN,GKINRPS,SSRDSSGFQVF,2.54,3/3,4/9
EGDSLRYYYWN,GKNNRPS,SSRDSSGMQVV,4.12,1/3,0/9
EGDSHRYYYAN,GKNNRGS,SSRDSSGFQVF,4.69,1/3,0/9
EGDSLRYYYAN,GKMNRPS,SWRDSSGFQVF,no signal,0/3,4/9
EGDSLRYLYAN,GKNNRPS,MIRDSSGFQVF,2.86,3/3,3/9
DGDSLRYYEAN,GKINRPS,SSRDSSGFQVF,3.26,3/3,6/9
EGDSLRYYYAN,GKNNRPS,SSWDSSGFKVV,2.78,3/3,2/9
EGDSLRYYYAN,GKNRRPS,YSRDSSGFQVY,no signal,0/3,0/9
EGDSLRLYYAN,GKLPRPS,SSRDSSGFQVF,3.22,1/3,2/9
EGDPLRYYPAN,GKNNRPS,SSRDSSTFQVF,0.65,3/3,5/9
EGDSLRYYYAN,GKNNRPS,MSQDSSGFQSF,no signal,0/3,5/9
LGDSLRYYYAN,GINNRPF,SSRDSSGFQVF,3.18,2/3,1/9
EGDSLRYPYAN,GKNNRPS,SSRDASGFAVF,2.11,3/3,6/9

Further variants, results first:

mean log10 Kd (nM),replicates with signal,control signals,CDR-L1,CDR-L2,CDR-L3
2.23,3/3,2/9,EGDSLRYYYGN,GKNIRPS,SSRDSSGFQVW
3.88,2/3,4/9,EGDSLYYYYAN,GKNNRPS,TSRDSRGFQVF
3.95,3/3,0/9,EGDSLRYIYAN,GKNNRPS,SSRDSAGFQDF
3.30,3/3,2/9,EGDSLRYYKAN,GKNNRHS,SSRDCSGFQVF
3.45,1/3,1/9,EGCSLRYYYDN,GKNNRPS,SSRDSSGFQIF
no signal,0/3,1/9,EGDSLRYYYAN,GKNNRPS,SSVDSSDFQVF
2.50,3/3,2/9,EGDSLRYYYAN,GKNNRVS,KSRDPSGFQVF
2.71,1/3,2/9,EGDSLRYYYAQ,GKNNRPS,SSEDSSNFQVF
2.61,3/3,3/9,EGDSLRYYYAN,GKNNRPS,SFRGSSGGQVF
5.29,1/3,5/9,EDDSLRYYYAN,GKWNRPS,SSRDSSAFQVF
2.54,3/3,4/9,EGDSLRYYYAN,GKNNRPS,SYRASTGFQVF
3.86,1/3,1/9,EGDSLRYYYHN,GKNNRPT,SSRDESGFQVF
3.61,3/3,4/9,EGDSLRYYYAN,GYNNRPS,SSVDSSGFQYF
4.72,1/3,2/9,EGDSLRYYYAR,GKNNSPS,SSRDSEGFQVF
3.01,3/3,1/9,SGDSLRYYYAN,AKNNRPN,SSRDSSGFQVF
3.92,2/3,1/9,EHDSLRYYYAN,HKNNRPS,SSRDSSGFQAF
4.44,1/3,1/9,EGDSLRYYYAN,GTNNRPS,SSRDSSEFQVP
no signal,0/3,1/9,EGDSLREYYAN,GKRNRPS,SSRDSSGFQKF
3.72,2/3,1/9,EGDNLRYYYAN,GKNNRPS,FSPDSSGFQVF
3.30,3/3,4/9,EGDSLPYYYAN,GKNNRPS,SSRDHSGFPVF
0.95,3/3,0/9,EGDSLRYYSAN,GKNNRPK,SSRASSGFQVF
3.68,1/3,0/9,EGDSLRYYYAN,GKCNEPP,SSRDSSGFQVF
1.84,3/3,5/9,EGDALRYYMAN,GKNNRPS,SSRDSSGFGVF
4.46,1/3,4/9,YGDSLRYYYAM,GKNNRPS,SSRDSLGFQVF
2.96,1/3,1/9,EEDPLRYYGAN,GKNNRPS,SSRDSSGFQVF
1.58,3/3,2/9,EGDSLRCESAN,GKNNRPS,SSRDSSGFQVF
3.59,2/3,6/9,EGDSLRYYYAN,GKNPRPS,SSRDSSGFQII
4.27,3/3,2/9,EMDSLRYYYAN,AKNYRPS,SSRDSSGFQVF
3.61,2/3,3/9,ETDSLRYYYAN,GKNNRDS,SSRDSSGFQVL
2.78,3/3,2/9,EGDSLRYYYAN,GKNNRPS,VSRDSSGFQGW
2.85,3/3,5/9,KGDSLSYYYAN,GKYNRPS,SSRDSSGFQVF
4.56,2/3,2/9,EMDSLRYYYAN,WKNNVPS,SSRDSSGFQVF
3.11,3/3,2/9,EGDSLHYYPYN,GKNNRPS,SSRDSSGFQVF
3.00,3/3,1/9,EGDSLRYYYAN,GRNNRPS,GSRDSSYFQVF
3.67,2/3,1/9,ERDSLRYYYAN,GKNNSPT,SSRDSSGFQVF
1.66,3/3,6/9,KGDSLRYYYAN,GKNNRPS,SSRDSSGFQVW
3.72,2/3,2/9,EGDSGRYYYAN,GKNNRPS,SLPDSSGFQVF

The 4 strongest on average among those seen in every replicate, once more:

{"CDR-L1": "EGDPLRYYPAN", "CDR-L2": "GKNNRPS", "CDR-L3": "SSRDSSTFQVF", "mean log10 Kd (nM)": "0.65", "replicates with signal": "3/3", "control signals": "5/9"}
{"CDR-L1": "EGDSLRYYSAN", "CDR-L2": "GKNNRPK", "CDR-L3": "SSRASSGFQVF", "mean log10 Kd (nM)": "0.95", "replicates with signal": "3/3", "control signals": "0/9"}
{"CDR-L1": "EGDSLRCESAN", "CDR-L2": "GKNNRPS", "CDR-L3": "SSRDSSGFQVF", "mean log10 Kd (nM)": "1.58", "replicates with signal": "3/3", "control signals": "2/9"}
{"CDR-L1": "KGDSLRYYYAN", "CDR-L2": "GKNNRPS", "CDR-L3": "SSRDSSGFQVW", "mean log10 Kd (nM)": "1.66", "replicates with signal": "3/3", "control signals": "6/9"}

Source: Engelhart et al. 2022 (doi:10.1038/s41597-022-01779-4), MIT Lincoln Laboratory and A-Alpha Bio; data file from the FLAb repository.